Values quoted from earlier work in patent publication US20200297696A1, “P38 INHIBITORS FOR THE TREATMENT OF FSHD” (Saint Louis University, priority 2017, published 2020).

Protein sequences, listed by entry. Tags and fused reporters are not part of them.
UniProt Q16539, whole entry: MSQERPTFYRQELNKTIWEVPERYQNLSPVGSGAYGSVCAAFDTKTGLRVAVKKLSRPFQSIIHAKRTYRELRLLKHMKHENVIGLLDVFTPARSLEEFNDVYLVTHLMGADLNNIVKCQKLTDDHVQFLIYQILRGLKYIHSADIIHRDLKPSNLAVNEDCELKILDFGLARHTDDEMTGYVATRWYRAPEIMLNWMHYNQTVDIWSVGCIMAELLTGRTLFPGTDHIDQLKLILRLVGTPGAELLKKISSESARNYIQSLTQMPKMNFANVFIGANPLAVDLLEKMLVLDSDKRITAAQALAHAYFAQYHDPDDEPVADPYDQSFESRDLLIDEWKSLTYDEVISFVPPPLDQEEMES

Target: p38α (Homo sapiens, UniProt Q16539)
Settings: fold selective over p38β; cited from earlier work

## Cn1c(=O)c(Oc2ccc(F)cc2F)cc2cnc(NC(CCO)CCO)nc21 [Pamapimod]
  Selectivity for p38α over p38β: p38α, 34X selective over p38β
